This is an account of results in patent publication US9683009B2, “Bone-selective osteogenic oxysterol-bone targeting agents” (The Regents of the University of California, priority 2013, dated 2017).

This test relates to M2-10B4 bone marrow stromal cells. Put plainly: osteogenic differentiation / ALP enzymatic activity in M2-10B4 bone marrow stromal cells. It counts as cell-based. Conditions: cyclopamine (Cyc; 5 μM) alone, M2-10B4 cells, ± SD. How it is done: Osteogenic differentiation was assessed by the induction of alkaline phosphatase (ALP) enzymatic activity, as well as induced expression of osteogenic differentiation marker genes ALP, bone sialoprotein (BSP), and osterix (OSX).

Consider `CC1=C2C[C@H]3[C@@H](CC=C4C[C@@H](O)CC[C@@]43C)[C@@H]2CC[C@]12O[C@@H]1C[C@H](C)CN[C@H]1[C@H]2C` [Cyc, cyclopamine, reference compound], for which the “ALP Activity” value was found to be 1 ± 1 units/mg protein.
